Assay results published in patent US20130071854A1, “METHODS FOR THE IDENTIFICATION AND CHARACTERIZATION OF HDAC INTERACTING COMPOUNDS” (priority 2009, published 2013).

Amino acid sequences for entries named in this document (tags omitted). A change or cut given only in a name is not applied to a line headed by its entry.
UniProt O15379: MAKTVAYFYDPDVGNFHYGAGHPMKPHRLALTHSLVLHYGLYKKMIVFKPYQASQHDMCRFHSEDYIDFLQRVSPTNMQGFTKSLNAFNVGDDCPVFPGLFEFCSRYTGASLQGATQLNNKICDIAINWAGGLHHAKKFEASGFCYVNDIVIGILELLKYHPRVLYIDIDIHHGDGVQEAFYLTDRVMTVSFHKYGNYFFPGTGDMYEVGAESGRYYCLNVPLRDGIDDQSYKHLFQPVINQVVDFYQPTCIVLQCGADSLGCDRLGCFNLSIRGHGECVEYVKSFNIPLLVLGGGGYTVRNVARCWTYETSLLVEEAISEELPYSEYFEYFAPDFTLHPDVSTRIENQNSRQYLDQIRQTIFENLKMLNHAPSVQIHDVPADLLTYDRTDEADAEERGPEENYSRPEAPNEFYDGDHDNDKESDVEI

Assays:
GATAD2A = assay: Competition binding assay in cell lysate, affinity matrix, MS (Mi-2/NuRD interactor); conditions: K-562 cell lysate
[1] = target: T1, non-HDAC targets (e.g. BZW2, ISOC2, aldehyde dehydrogenases) (Homo sapiens, UniProt Q9Y6E2); assay: Chemoproteomic binding profiling, K562 cell extract, SAHA/ITF2357 probe matrix (Kd app); conditions: protein BZW2; selected HDACi off-targets
T1 construct: endogenous in cells; host or cells: K562 whole cell extract
T1 sequence (Q9Y6E2 1-419): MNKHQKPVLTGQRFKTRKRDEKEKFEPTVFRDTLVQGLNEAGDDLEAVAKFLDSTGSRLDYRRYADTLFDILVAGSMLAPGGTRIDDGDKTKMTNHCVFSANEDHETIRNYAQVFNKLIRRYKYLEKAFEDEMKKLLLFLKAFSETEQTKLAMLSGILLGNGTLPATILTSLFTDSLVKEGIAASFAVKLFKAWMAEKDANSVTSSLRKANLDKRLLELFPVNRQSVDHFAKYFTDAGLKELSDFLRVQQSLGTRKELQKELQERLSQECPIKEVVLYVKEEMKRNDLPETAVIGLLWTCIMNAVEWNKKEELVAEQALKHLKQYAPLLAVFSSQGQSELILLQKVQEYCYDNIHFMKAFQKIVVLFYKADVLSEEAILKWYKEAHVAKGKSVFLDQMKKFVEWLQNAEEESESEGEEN

[2] = target: T2, non-HDAC targets (e.g. BZW2, ISOC2, aldehyde dehydrogenases) (Homo sapiens, UniProt Q96AB3); assay: as above; conditions: protein ISOC2; selected HDACi off-targets
T2 construct: endogenous in cells; host or cells: K562 whole cell extract
T2 sequence (Q96AB3 1-205): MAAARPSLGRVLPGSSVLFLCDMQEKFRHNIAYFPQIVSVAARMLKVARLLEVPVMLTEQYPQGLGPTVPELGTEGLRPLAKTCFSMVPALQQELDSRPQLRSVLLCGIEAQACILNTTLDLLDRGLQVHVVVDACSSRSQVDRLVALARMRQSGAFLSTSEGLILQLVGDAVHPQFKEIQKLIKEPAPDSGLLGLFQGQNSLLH

[3] = target: T3, non-HDAC targets (e.g. BZW2, ISOC2, aldehyde dehydrogenases) (Homo sapiens, UniProt O94788); assay: as above; conditions: protein ALDH1A2; selected HDACi off-targets
T3 construct: endogenous in cells; host or cells: K562 whole cell extract
T3 sequence (O94788 1-518): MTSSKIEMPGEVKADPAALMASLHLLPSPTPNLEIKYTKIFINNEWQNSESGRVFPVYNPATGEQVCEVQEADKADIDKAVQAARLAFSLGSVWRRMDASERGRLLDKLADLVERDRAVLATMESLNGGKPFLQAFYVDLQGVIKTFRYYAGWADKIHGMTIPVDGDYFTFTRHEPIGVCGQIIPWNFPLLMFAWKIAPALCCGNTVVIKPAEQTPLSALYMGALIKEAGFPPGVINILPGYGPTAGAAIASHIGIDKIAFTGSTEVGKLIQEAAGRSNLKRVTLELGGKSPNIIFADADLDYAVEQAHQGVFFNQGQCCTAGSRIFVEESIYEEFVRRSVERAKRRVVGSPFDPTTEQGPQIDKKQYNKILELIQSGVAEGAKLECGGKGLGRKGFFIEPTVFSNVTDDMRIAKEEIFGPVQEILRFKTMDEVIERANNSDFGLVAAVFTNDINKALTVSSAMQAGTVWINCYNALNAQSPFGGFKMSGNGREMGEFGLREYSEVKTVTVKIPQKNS

HDAC8 = target: T4, HDAC8 (Homo sapiens, UniProt Q9BY41); assay: as above; parameters: used to probe endogenous HDACs in K562 whole cell extracts; endogenous in cells; host or cells: K-562; conditions: read-out: Kd^app HDAC8; protein HDAC8; class I HDAC
T4 sequence (Q9BY41 1-377): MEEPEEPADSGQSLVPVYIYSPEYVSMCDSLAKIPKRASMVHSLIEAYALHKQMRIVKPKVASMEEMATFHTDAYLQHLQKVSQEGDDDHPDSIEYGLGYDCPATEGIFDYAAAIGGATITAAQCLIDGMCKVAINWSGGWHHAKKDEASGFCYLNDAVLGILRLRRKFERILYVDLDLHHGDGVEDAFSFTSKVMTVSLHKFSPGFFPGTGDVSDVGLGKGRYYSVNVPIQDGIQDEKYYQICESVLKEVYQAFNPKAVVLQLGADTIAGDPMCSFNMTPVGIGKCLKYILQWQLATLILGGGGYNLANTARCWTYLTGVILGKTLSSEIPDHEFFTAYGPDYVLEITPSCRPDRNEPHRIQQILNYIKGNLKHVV

HDAC10 [4] = target: T5, HDAC10 (Homo sapiens, UniProt Q969S8); assay: Chemoproteomic binding profiling, K562 cell extract, SAHA/ITF2357 probe matrix (Kd app); parameters: used to probe endogenous HDACs in K562 whole cell extracts; endogenous in cells; host or cells: K-562
T5 sequence (Q969S8 1-669): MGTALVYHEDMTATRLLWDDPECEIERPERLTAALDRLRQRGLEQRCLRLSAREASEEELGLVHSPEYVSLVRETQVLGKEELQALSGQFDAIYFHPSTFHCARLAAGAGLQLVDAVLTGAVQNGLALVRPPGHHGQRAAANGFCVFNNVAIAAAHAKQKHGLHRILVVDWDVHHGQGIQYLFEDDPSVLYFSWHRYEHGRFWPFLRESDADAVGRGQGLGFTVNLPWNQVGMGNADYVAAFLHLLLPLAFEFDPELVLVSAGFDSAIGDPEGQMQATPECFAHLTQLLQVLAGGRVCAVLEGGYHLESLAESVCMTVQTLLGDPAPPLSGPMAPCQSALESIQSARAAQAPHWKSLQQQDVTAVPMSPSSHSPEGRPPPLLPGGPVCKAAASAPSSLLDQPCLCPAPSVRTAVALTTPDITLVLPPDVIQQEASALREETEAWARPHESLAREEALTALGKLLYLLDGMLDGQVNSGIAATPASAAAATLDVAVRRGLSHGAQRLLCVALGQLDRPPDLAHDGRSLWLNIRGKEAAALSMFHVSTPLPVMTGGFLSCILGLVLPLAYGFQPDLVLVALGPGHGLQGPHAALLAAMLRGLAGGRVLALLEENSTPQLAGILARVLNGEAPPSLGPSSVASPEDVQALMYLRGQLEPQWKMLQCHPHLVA

HDAC10 [5] = target: T5, HDAC10; assay: Competition binding assay in cell lysate, affinity matrix, MS; parameters: used to probe endogenous HDACs in K562 whole cell extracts; endogenous in cells; host or cells: K-562; conditions: K-562 cell lysate
HDAC3 = HDAC3 (Homo sapiens, UniProt O15379); assay: Chemoproteomic binding profiling, K562 cell extract, SAHA/ITF2357 probe matrix (Kd app)
HDAC3-NCoR complex = HDAC3-NCoR complex (Homo sapiens, UniProt O15379); assay: as above

Row | Compound | IC50 (GATAD2A) [µM] | Kd [1] [µM] | Kd [2] [µM] | Kd [3] [µM] | Kd (HDAC8) [µM] | IC50 (RBBP4) | Kd (HDAC10 [4]) [µM] | IC50 (HDAC10 [5]) [µM] | Kd (HDAC3) [µM] | Kd (HDAC3-NCoR complex; Kd^app GPS2) [µM] | Kd (HDAC3-NCoR complex; Kd^app NCOR1) [µM] | Kd (HDAC3-NCoR complex; Kd^app NCOR2) [µM] | Kd (HDAC3-NCoR complex; Kd^app TBL1X) [µM] | Kd (HDAC3-NCoR complex; Kd^app TBL1XR1) [µM]
1 | O=C(CCCCCCC(=O)Nc1ccccc1)NO [SAHA, suberoylanilide hydroxamic acid] | 0.79 | 1.97 | 0.03 | 0.5 | > 10 | 0.46 µM and 0.79 µM | 0.78 | ≥ 10 | – | – | – | – | – | –
2 | CCCC(CCC)C(=O)O [valproate, valproic acid] | – | – | – | – | – | – | – | – | 4810 | 2410 | 2870 | 4330 | 2880 | 1330

Several values for one entry are separate records, joined by “and”; a condition that tells them apart may be missing. Identical values can stand only once.
